Data reported in PubChem BioAssay AID2237 (Johns Hopkins Ion Channel Center, 2010).
The entries are a selection whose mix differs from that of the whole data set. Calls of active or inactive are those of the source.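 Rule for the calls: active = B-score above 5 SD of library B-scores, and initial fluorescence ratio not above library mean plus 5 SD; inactive = the rest.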

Amino acid sequences for entries named in this document (tags omitted).
UniProt Q9QUQ5, whole entry: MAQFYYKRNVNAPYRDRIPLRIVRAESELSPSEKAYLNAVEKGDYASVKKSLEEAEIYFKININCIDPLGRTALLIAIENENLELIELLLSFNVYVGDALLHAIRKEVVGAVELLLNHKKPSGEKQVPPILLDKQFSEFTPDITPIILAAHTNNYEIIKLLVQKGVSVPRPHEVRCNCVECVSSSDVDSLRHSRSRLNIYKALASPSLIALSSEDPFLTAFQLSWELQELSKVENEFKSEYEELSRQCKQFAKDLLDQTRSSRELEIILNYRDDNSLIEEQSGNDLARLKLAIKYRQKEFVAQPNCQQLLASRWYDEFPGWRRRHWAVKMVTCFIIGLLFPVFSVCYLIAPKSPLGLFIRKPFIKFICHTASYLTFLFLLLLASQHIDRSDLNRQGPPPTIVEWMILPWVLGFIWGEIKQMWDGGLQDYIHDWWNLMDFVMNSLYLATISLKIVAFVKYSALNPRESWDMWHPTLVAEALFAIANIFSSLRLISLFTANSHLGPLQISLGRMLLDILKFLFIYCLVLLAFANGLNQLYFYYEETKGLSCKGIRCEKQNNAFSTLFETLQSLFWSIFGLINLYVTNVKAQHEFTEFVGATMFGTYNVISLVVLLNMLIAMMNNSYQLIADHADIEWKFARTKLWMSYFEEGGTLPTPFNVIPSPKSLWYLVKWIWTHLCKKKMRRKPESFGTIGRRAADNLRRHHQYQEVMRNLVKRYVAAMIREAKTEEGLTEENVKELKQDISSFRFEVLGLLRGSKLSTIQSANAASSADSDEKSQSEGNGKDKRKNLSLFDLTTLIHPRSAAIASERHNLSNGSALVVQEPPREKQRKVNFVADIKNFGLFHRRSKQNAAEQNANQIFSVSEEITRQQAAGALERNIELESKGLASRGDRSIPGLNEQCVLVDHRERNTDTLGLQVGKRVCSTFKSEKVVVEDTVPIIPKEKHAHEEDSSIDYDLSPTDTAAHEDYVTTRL

Target: Short transient receptor potential channel 4 (Mus musculus) (UniProt Q9QUQ5)
Test: TRPC4 cation channel opening, calcium rise – Fluo4 calcium, HEK293 TRPC4beta/mu-opioid cells, primary screen (AID 2237)
Settings: Fluo4 calcium fluorescence, at 10 µM

Compound	outcome
CC(C)(C)C(=O)NC(Sc1ncccn1)C(Cl)(Cl)Cl (stereo unspecified)	inactive
Clc1n[nH]nc1-c1nn[nH][15n]1	inactive
O=[N+]([O-])c1cc([N+](=O)[O-])c(-n2nnc3ccccc32)c([N+](=O)[O-])c1	inactive
CCOP(=O)(NC(=NC(C)c1ccccc1)NC(C)c1ccccc1)OCC (stereo unspecified)	inactive
O=P1(Nc2ccccn2)COc2ccccc2OC1	inactive
CCC1=CC2Cc3nc4ccc(Cl)cc4c(N)c3C(C1)C2 (stereo unspecified)	inactive
CCOP(=O)(Nc1ccc(C)cn1)OCC	inactive
CN(CCCl)Cc1cc(Cl)c(NC2=NCCN2)c(Cl)c1	inactive
CC(C)/C=N\N=C(\N)N[N+](=O)[O-]	inactive
CN(C(=O)Cc1ccc(Cl)c(Cl)c1)[C@@H]1CCCC[C@H]1N1CCCC1	inactive
CC1(CBr)Cn2c(nc3ccccc3c2=O)S1 (stereo unspecified)	inactive
O=[As](O)(c1ccccc1Br)c1ccccc1Br	inactive
O=[N+]([O-])c1cc([N+](=O)[O-])c(-c2cnn(-c3ccccc3)c2)c([N+](=O)[O-])c1	inactive
COc1ccccc1CNC(=O)COC(=O)C(O)(c1ccccc1)c1ccccc1	inactive
CCOC(=O)C(CC)C1=NC(C)(C)Cc2ccccc21.O=[N+]([O-])c1cc([N+](=O)[O-])c(O)c([N+](=O)[O-])c1 (stereo unspecified)	inactive
O=[N+]([O-])c1cc([N+](=O)[O-])c(Nc2nnnn2CCO)c([N+](=O)[O-])c1	inactive

Compound	outcome
O=C(/C=C/c1ccccc1)OC1CN2CCC1CC2 (stereo unspecified)	inactive
CC1CCC(C(C)C)C(OP(=O)(Nc2ccccn2)c2ccccc2)C1 (stereo unspecified)	inactive
Cc1ccc(C(=O)OC2CN3CCC2CC3)cc1 (stereo unspecified)	inactive
Cc1nn(-c2ccccc2)c2c1P(=O)(N1CCOCC1)N(C)C(c1ccccc1)=N2 (stereo unspecified)	inactive
COc1cc(C2NCCC3(OCCO3)C2(C)C)cc(OC)c1OC.O=[N+]([O-])c1cc([N+](=O)[O-])c(O)c([N+](=O)[O-])c1 (stereo unspecified)	inactive
CCCOc1ccc(NP(C)(=O)Oc2ccc(Cl)cc2)cc1 (stereo unspecified)	inactive
Nc1cccc([As](=O)(O)c2ccccc2)c1	inactive
CP(=O)(Nc1ccc(SC(F)(F)F)cc1)Oc1ccccc1 (stereo unspecified)	inactive
Cc1ccc(OCC(=O)OC2CN3CCC2CC3)cc1 (stereo unspecified)	inactive
O=[As](O)(c1cccs1)c1cccs1	inactive
O=P1(Nc2ccc(Br)cn2)COc2ccccc2OC1	inactive
COc1ccccc1OP(C)(=O)Nc1c(C)cccc1C (stereo unspecified)	inactive
CN1CCCCC1COC(=O)C1(O)c2ccccc2CCc2ccccc21 (stereo unspecified)	inactive
O=P1(Nc2ncccn2)COc2ccccc2OC1	inactive
Nc1ccccc1[As](=O)(O)c1ccccc1	inactive
